For one molecule, IC50 results are on record in the Kinase Knowledgebase extract (Sharma et al. 2016).

Sequences of proteins named here, by UniProt entry; tags and fusion partners are left off.
UniProt P00533, whole entry, looked up: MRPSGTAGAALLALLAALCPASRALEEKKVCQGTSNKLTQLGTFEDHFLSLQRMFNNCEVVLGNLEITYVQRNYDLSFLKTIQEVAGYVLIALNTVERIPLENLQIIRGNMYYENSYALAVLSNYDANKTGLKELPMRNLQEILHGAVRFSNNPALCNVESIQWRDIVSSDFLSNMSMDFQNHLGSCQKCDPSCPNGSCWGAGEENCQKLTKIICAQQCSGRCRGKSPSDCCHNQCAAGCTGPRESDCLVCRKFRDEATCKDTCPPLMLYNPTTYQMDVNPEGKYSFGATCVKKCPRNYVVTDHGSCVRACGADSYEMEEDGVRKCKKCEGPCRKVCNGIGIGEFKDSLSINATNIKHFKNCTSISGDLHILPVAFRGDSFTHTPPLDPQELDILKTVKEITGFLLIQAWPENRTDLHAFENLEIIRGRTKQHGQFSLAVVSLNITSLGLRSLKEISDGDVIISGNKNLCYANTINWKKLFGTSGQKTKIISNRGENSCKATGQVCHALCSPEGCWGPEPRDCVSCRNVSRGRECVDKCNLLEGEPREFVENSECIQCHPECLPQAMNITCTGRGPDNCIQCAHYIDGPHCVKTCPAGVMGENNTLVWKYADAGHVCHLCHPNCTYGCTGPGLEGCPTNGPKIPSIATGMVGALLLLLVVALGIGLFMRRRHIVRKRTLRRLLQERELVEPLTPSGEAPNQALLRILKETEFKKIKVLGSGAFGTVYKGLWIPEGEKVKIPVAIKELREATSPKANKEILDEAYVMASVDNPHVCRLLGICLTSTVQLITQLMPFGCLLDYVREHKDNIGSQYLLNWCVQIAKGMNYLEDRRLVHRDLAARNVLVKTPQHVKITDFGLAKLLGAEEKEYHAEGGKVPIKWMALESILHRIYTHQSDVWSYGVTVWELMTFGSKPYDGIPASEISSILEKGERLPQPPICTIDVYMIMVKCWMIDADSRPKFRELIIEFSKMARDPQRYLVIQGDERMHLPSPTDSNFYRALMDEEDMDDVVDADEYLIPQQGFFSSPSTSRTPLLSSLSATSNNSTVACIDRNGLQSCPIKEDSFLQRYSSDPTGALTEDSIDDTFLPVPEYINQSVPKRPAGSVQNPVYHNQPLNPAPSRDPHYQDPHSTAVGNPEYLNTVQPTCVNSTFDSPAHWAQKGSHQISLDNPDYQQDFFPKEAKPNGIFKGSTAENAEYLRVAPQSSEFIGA

The term IC50 denotes the midpoint of a concentration-inhibition curve.

The assay has as its target EGFR (human) (UniProt P00533). The conditions noted are these: a431.

Consider `COc1cc2ncnc(Nc3cccc(Cl)c3)c2cc1OC`, for which the IC50 was 10 µM.
